From ChEMBL document CHEMBL1152545, “Fluorinated indazoles as novel selective inhibitors of nitric oxide synthase (NOS): synthesis and biological evaluation” (Bioorg Med Chem, 2009)

Chains of the proteins cited; added tags and fusions are not shown.
UniProt P35228, whole entry, looked up: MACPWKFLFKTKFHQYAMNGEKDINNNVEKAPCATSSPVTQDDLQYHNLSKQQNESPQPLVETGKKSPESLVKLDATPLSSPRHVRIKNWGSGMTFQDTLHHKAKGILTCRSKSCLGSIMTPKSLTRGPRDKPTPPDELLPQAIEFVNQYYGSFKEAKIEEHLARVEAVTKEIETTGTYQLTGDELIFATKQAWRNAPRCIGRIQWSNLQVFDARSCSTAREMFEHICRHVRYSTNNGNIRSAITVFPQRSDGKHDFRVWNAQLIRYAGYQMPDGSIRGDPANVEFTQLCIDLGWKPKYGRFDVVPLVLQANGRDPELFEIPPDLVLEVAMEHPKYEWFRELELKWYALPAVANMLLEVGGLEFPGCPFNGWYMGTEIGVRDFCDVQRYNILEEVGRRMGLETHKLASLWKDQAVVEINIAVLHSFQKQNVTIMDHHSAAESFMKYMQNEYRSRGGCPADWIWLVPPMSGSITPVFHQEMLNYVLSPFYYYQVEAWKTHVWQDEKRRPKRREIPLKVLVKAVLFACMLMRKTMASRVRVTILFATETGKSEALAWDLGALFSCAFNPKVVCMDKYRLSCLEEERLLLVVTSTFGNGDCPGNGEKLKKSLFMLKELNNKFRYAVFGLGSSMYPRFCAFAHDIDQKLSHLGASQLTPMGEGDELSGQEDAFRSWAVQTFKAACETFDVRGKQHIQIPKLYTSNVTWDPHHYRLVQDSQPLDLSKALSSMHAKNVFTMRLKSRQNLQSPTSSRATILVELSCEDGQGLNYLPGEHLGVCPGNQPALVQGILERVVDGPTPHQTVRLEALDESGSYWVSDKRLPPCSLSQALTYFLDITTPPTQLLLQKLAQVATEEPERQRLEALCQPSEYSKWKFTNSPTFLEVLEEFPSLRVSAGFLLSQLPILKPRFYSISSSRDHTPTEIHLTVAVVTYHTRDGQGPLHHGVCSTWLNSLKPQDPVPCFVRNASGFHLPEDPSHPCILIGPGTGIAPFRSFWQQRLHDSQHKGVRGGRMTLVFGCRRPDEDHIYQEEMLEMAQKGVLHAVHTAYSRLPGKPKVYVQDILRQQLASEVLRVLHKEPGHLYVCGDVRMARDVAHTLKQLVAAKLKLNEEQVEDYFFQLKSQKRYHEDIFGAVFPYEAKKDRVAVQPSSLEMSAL
UniProt P29475, whole entry, looked up: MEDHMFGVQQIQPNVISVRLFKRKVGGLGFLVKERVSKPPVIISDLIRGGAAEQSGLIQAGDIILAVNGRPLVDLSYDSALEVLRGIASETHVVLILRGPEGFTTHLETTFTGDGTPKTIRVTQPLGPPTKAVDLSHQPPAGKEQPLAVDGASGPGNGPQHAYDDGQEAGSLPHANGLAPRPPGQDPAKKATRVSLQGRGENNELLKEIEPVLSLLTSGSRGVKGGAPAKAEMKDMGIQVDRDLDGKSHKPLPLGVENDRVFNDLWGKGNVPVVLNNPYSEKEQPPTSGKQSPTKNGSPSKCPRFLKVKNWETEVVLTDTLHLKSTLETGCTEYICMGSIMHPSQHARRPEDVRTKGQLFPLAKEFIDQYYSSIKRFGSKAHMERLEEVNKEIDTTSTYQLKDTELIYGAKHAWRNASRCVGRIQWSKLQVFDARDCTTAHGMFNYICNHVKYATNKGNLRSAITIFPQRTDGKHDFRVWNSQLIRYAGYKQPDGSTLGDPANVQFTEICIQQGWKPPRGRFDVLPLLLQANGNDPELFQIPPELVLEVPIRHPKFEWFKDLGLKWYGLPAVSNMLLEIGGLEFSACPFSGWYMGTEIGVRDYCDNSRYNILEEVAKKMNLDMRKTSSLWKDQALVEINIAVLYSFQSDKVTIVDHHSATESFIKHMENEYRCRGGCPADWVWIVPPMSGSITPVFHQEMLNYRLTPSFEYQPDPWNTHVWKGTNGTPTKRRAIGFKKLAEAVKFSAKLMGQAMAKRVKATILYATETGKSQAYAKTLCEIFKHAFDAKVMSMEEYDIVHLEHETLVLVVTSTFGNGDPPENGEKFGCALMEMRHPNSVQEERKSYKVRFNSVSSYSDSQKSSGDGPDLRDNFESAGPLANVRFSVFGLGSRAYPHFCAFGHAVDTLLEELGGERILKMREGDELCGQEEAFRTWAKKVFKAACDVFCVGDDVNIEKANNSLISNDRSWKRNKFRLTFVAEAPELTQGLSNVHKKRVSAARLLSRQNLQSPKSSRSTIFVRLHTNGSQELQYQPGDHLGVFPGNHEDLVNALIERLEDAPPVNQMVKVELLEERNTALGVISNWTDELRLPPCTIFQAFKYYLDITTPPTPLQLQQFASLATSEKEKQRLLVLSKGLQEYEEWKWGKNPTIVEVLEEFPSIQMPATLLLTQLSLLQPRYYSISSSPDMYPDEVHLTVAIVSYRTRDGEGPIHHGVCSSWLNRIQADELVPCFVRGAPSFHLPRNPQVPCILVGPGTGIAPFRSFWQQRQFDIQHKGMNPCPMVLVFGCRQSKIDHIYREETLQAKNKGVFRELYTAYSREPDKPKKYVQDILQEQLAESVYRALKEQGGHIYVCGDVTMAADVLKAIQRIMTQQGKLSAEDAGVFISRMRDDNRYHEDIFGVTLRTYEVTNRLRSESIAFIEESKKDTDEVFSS

Legend:
[1] = biological target: Nitric oxide synthase, inducible (Homo sapiens, UniProt P35228); assay: Inhibition of NOS2
[2] = biological target: Nitric oxide synthase 1 (Homo sapiens, UniProt P29475)

O=[N+]([O-])c1cccc2cn([N+](=O)[O-])nc12
IC50 [1]: 3200 nM
IC50 [2]: 620 nM
